Measured values reported in patent publication US20230265151A1, “GIP/GLP1 CO-AGONIST COMPOUNDS” (priority 2020, published 2023).

Chains of the proteins cited; added tags and fusions are not shown. Residues count along the entry.
UniProt P43220, 24-463: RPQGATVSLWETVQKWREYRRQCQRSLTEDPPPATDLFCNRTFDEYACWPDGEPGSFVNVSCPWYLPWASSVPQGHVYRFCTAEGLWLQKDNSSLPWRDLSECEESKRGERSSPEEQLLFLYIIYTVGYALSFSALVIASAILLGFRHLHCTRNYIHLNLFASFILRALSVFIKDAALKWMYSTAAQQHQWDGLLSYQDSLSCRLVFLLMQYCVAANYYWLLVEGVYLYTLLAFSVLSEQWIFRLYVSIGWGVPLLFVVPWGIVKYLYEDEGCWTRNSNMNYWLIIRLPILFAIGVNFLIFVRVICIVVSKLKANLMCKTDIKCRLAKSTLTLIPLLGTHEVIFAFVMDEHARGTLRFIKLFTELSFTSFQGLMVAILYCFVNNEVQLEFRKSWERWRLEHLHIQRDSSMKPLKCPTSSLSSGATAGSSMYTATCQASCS
UniProt P47871, 26-477: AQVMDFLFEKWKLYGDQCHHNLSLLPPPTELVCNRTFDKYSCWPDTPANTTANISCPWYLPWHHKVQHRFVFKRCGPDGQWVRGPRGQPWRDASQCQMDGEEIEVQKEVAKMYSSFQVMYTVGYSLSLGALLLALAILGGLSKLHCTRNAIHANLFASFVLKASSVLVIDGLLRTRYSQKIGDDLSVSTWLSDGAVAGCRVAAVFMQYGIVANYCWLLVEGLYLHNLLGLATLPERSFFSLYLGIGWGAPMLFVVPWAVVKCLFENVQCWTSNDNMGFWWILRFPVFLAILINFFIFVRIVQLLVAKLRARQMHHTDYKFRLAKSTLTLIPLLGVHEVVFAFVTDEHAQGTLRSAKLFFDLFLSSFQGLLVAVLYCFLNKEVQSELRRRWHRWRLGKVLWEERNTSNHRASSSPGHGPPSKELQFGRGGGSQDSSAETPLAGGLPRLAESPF

Legend:
Type in all cases: cell-based
[1] = target: hGLP-1R (Homo sapiens, UniProt P43220); assay: Functional cAMP formation (HTRF) in HEK-293 clonal cells expressing hGLP-1R, 0.1% bovine casein, without or with 1.0% human serum albumin; parameters: expressed in transfected cells; conditions: for EC50: geometric mean, read-out: hGLP-1R EC50, nM (SEM, n)
Method: (§1) After a 30-min incubation at 37° C., the resulting increase in intracellular cAMP is quantitatively determined using a CisBio cAMP Dynamic 2 HTRF Assay Kit (62AM4PEJ). Briefly, cAMP levels within the cell are detected by adding the cAMP-d2 conjugate in cell lysis buffer (10 µL) followed by the antibody anti-cAMP-Eu^3+-Cryptate, also in cell lysis buffer (10 µL). The resulting competitive assay is incubated for at least 60 min at room temperature, and then is detected using a PerkinElmer Envision® instrument with excitation at 320 nm and emission at 665 nm and 620 nm. Envision units (emission at 665 nm/620 nm* 10,000) are inversely proportional to the amount of cAMP present and are converted to nM cAMP per well us-ing a cAMP standard curve. […] A relative EC50 value and percent top (Emax) are derived by non-linear regression analysis using the percent maximal response vs. the concentration of peptide added, fitted to a four-parameter logistic equation.

[2] = target: T1, hGCGR (Homo sapiens, UniProt P47871); assay: Functional cAMP formation (HTRF) in HEK-293 clonal cells expressing hGCGR, 0.1% bovine casein, without or with 1.0% human serum albumin; conditions: incubated at 37° C., 0.1% bovine casein (no human serum albumin), geometric mean, read-out: hGCGR EC50, nM (SEM, n)
T1 construct: expressed in transfected cells
Method: as §1

[3] = target: T2, hGIPR (Homo sapiens, UniProt P48546); assay: Functional cAMP formation (HTRF) in HEK-293 clonal cells expressing hGIPR, 0.1% bovine casein, without or with 1.0% human serum albumin; conditions: for EC50: geometric mean, read-out: hGIPR EC50, nM (SEM, n); for Emax: read-out: hGIPR Emax, % ± SEM
T2 construct: expressed in transfected cells
T2 sequence (P48546 22-466): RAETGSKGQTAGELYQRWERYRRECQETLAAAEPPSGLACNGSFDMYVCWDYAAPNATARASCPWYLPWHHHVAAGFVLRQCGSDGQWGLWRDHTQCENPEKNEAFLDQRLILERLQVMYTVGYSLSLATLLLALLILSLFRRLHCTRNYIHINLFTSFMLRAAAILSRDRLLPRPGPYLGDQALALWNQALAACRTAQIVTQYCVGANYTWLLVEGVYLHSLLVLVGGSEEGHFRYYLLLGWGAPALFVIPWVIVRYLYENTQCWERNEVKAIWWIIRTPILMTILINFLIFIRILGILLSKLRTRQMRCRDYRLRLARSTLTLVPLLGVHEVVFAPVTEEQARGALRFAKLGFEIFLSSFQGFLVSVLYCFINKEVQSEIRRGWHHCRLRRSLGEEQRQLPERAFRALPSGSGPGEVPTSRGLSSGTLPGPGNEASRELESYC
Method: as §1

[4] = 0.1% bovine casein and 1.0% human serum albumin, 37° C.
[5] = cAMP, incubated at 37° C., 0.1% bovine casein (no human serum albumin)

## CC[C@H](C)[C@H](NC(=O)[C@H](CC(C)C)NC(=O)[C@](C)(Cc1ccc(O)cc1)NC(=O)[C@H](CCCCNC(=O)COCCOCCNC(=O)COCCOCCNC(=O)CC[C@H](NC(=O)CCCCCCCCCCCCC(=O)O)C(=O)O)NC(=O)[C@@H](NC(=O)[C@H](Cc1ccccc1)NC(=O)[C@H](CCC(=O)O)NC(=O)C(C)(C)NC(=O)[C@H](CCC(N)=O)NC(=O)[C@H](C)NC(=O)[C@H](CCCCNC(=O)COCCOCCNC(=O)COCCOCCNC(=O)CC[C@H](NC(=O)CCCCCCCCCCCCC(=O)O)C(=O)O)NC(=O)[C@H](CCCN)NC(=O)[C@H](CC(=O)O)NC(=O)[C@H](CC(C)C)NC(=O)[C@](C)(CC(C)C)NC(=O)[C@@H](NC(=O)[C@H](CO)NC(=O)[C@H](Cc1ccncc1)NC(=O)[C@H](CC(=O)O)NC(=O)[C@H](CO)NC(=O)[C@@H](NC(=O)[C@](C)(Cc1ccccc1F)NC(=O)[C@@H](NC(=O)CNC(=O)[C@H](CCC(=O)O)NC(=O)C(C)(C)NC(=O)[C@@H](N)Cc1ccc(O)cc1)[C@@H](C)O)[C@@H](C)O)[C@@H](C)CC)[C@@H](C)CC)C(=O)N[C@@H](CCC(=O)O)C(=O)NCC(=O)NCC(=O)N1CCC[C@H]1C(=O)N[C@@H](CO)C(=O)N[C@@H](CO)C(=O)NCC(N)=O [Example 188]
[1]; [4]
  EC50: 19.1 nM
[1]; HEK293, percent of maximal response to GLP-1(7-36)NH2, 37° C., 0.1% bovine casein, arithmetic mean, read-out: hGLP-1R Emax, % ± SEM
  Emax: 96.6 ± 4.28%
[1]; [5]
  EC50: 0.332 nM
[2]
  EC50: > 9950 nM
[3]; [4]
  EC50: 1.37 nM
[3]; HEK293, 0.1% bovine casein and 1.0% human serum albumin, 37° C., percent of maximal response to GIP(1-42)NH2
  Emax: 89%
[3]; HEK293, percent of maximal response to GIP(1-42)NH2, 37° C., 0.1% bovine casein, arithmetic mean
  Emax: 94.9 ± 1.49%
[3]; [5]
  EC50: 0.0228 nM

Read-outs that look alike come from different tables or passages of the source.
